Here are results for one substance from patent US20200129597A1, “MODULATION OF FACTOR Xa INHIBITOR-MEDIATED BLOOD LOSS BY PARTIAL AND TRANSIENT ADMINISTRATION OF ANTIDOTE” (Portola Pharmaceuticals, Inc., priority 2012, published 2020).

Chains of the proteins cited; added tags and fusions are not shown. Residues count along the entry.
UniProt P00742, 41-179 limits assumed: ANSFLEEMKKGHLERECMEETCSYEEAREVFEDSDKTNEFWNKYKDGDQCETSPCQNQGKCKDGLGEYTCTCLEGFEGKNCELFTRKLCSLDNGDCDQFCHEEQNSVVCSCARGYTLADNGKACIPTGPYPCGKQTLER
UniProt P00742, 235-488 limits assumed: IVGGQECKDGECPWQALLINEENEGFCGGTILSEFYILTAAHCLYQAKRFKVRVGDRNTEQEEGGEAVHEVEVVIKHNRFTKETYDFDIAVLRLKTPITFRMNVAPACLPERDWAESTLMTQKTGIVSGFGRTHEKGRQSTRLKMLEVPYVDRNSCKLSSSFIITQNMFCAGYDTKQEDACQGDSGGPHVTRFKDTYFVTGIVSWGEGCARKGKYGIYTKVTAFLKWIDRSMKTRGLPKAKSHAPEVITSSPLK

In this assay the target is T1, prothrombinase complex (Homo sapiens, UniProt P00742).
T1 construct: from tissue; host or cells: pooled human plasma
Kind of assay: Tissue factor-initiated thrombin generation assay in human plasma. The class given is biochemical. Conditions: human plasma; read-out: IC50, inhibition of prothrombinase activity (thrombin generation). The procedure: The lines represent the best fittings; Kd and Ki values are listed. mOD min^−1=miliOptical Density per minute. […] Grey bar: Control plasma alone (PPP), Filled bar: rivaroxaban or rivaroxaban+r-antidote, Open bar: Control plasma+r-antidote. […] Thrombin generation was initiated by addition of Ca^2+ and tissue factor (TF). Cleavage of thrombin specific substrate Z-GGR-AMC (RFU=Relative Fluorescence Units) was measured at 37° C. for 10 min.
Anesthetized rats were administered enoxaparin (4.5 mg/kg) or vehicle by I.V. bolus injection followed by tail transection (2 mm from tip) 5 minutes later. […] The tip of the tail was placed in physiologic saline at 37° C. and blood collected for an additional 45 minutes after tail transection. Blood was lysed by diluting in water and freezing at −80° C. overnight. […] Anti-fXa activity of enoxaparin was measured using a modified chromogenic LMW heparin kit. Tissue factor (TF)-initiated thrombin generation was carried out in human plasma using a fluorogenic thrombin substrate by measurement of change of relative fluorescence unit (RFU) for 10 min following initiation of the reaction.
Innovin was used as the source of TF to initiate the generation of thrombin. The reaction mixture (final volume=100 μL) contained 15 mM Ca^2, 100 μM Z-GGR-AMC, and 0.1 nM TF. […] Tris-buffered saline (20 mM Tris, 150 mM NaCl, pH=7.4) was used to adjust the final volume of the reaction mixture.

As for “EGR-Xa: an active site inhibited full length human fXa (human plasma derived) [reference compound]”, the IC50 amounted to 0.026 µM.
